Experimental data from PubChem BioAssay (NCATS).
Only a part is listed here, and it is no random draw. Inconclusive results are not listed. Active and inactive are the calls of the source. Calls come from the whole dose curve; as a rule, active = well fitted curve in the direction sought with a large enough effect; inconclusive = small, poorly fitted or top-dose-only effect, or another doubt; inactive = no such curve, though single readings can be large; an effect the other way counts as inactive or inconclusive.

Protein sequences, listed by entry. Tags and fused reporters are not part of them. Lines headed by an entry give the natural chain unless they say otherwise; changes in a name come on top.
UniProt A8B2U2: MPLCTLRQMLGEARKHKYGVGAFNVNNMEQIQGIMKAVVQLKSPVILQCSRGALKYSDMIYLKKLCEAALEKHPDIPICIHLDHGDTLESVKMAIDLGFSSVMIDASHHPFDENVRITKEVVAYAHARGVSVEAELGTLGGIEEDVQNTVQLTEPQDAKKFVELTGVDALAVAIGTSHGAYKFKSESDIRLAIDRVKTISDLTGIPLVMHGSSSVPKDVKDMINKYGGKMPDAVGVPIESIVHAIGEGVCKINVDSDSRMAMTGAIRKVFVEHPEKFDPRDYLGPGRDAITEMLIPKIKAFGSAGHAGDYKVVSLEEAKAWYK
UniProt P00883: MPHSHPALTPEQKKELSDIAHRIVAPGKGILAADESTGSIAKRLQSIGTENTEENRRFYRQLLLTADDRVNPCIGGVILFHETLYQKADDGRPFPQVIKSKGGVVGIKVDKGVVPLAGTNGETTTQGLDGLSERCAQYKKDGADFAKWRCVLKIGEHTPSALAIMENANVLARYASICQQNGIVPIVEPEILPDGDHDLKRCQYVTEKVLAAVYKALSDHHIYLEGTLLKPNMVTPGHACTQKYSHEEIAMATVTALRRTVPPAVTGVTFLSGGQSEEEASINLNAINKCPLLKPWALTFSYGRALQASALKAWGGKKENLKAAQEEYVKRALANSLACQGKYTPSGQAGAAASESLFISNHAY

How the values were obtained:
[1] = qHTS Assay for Inhibitors of Fructose-1,6-bisphosphate Aldolase from Giardia Lamblia: Giardia lamblia growth inhibition (AID 2785); conditions: Giardia lamblia trophozoite growth inhibition; at 38.3 µM (top of the series); note: nearly all actives have a fitted effect of over 70% in size
Summary of the method: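 Whole-parasite growth test: Giardia WB trophozoites in TYI-S-33 (pH 7.0), 100 per well, incubated 48 h at 37C with compound. ATP content was read by ATPlite luminescence.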

[2] = qHTS Assay for Inhibitors of Fructose-1,6-bisphosphate Aldolase from Giardia Lamblia: Mammalian cellular toxicity (AID 2786); conditions: mammalian cell viability counter-screen; at 57.5 µM (top of the series);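 note: compound exposure lasted 48 h before reading; nearly all actives have a fitted effect of over 60% in size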
Summary of the method: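 Mammalian cytotoxicity surrogate: Chinese hamster ovary cells exposed to compound for 48 h at 37 °C. Cellular ATP then measured with ATPlite reagent, 20 min incubation.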

[3] = biological target: Fructose-bisphosphate aldolase (Giardia intestinalis (strain ATCC 50803 / WB clone C6)) (UniProt A8B2U2); assay: qHTS Assay for Inhibitors of Fructose-1,6-bisphosphate Aldolase from Giardia Lamblia: Primary screen confirmation (AID 2787); conditions: purified Giardia aldolase enzyme activity; at 57.5 µM (top of the series);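 note: aldolase product measured through coupled diaphorase step turning resazurin into fluorescent resorufin; nearly all actives have a fitted effect of over 45% in size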
Summary of the method: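 Confirmation of primary hits by qHTS up to 57.5 uM final compound. Enzyme at 40 nM with 30 uM ZnCl2, 10 min RT pre-incubation, then substrate/coupling/resorufin-forming detection mix for 20 min before fluorescence read at 525/598 nm.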

[4] = biological target: Fructose-bisphosphate aldolase A (Oryctolagus cuniculus) (UniProt P00883); assay: qHTS Assay for Inhibitors of Fructose-1,6-bisphosphate Aldolase from Giardia Lamblia: Rabbit FBPA Selectivity (AID 2794); conditions: Rabbit muscle FBPA enzyme inhibition, selectivity counter-screen; at 57.5 µM (top of the series); note: nearly all actives have a fitted effect of over 60% in size
Summary of the method: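 Rabbit FBPA, coupled to a resorufin-type fluorescent read (525/598 nm), tests whether primary hits hit Class I aldolase. Compound (up to 57.5 uM final) sits 10 min at RT with coupling enzyme before substrate/detection mix; read after 20 min RT.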

[5] = qHTS Assay for Inhibitors of Fructose-1,6-bisphosphate Aldolase from Giardia Lamblia: Coupling assay counterscreen confirmation (AID 2795); conditions: GAPDH coupling enzyme counterscreen, biochemical; at 57.5 µM (top of the series); note: nearly all actives have a fitted effect of over 55% in size
Summary of the method: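 Fluorescence (excitation 525 nm, emission 598 nm) reports signal from the coupled glyceraldehyde-3-phosphate dehydrogenase system with an AmpLite Red detection kit. Compounds up to 57.5 uM final were incubated 10 min, then 20 min after substrate addition, both at room temperature.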
% is set by controls: 0 for no effect and ±100 for the full control effect.

CCCOP(=S)(Nc1nc(N)cc(=O)[nH]1)OCCC
inactive: activity change, negative = inhibition [1] -4.36% | viability change, negative = toxicity [2] -5.04% | activity change, negative = inhibition [3] 3.21% | activity, negative = inhibition [4] 2.8% | activity change, negative = inhibition [5] -5.88%

Cc1cc(SC(NC=O)C(Cl)(Cl)Cl)ncn1 (stereo not given)
inactive: activity change, negative = inhibition [1] -9.25% | viability change, negative = toxicity [2] 21.2% | activity change, negative = inhibition [3] -6.85% | activity, negative = inhibition [4] -12.8% | activity change, negative = inhibition [5] -6.51%
